Experimental data: patent US9273099 (Dana-Farber, dated 2016)
Values belong to the molecule of their own block, whether it stands above or below them.

Protein sequences, listed by entry. Tags and fused reporters are not part of them. Lines headed by an entry give the natural chain unless they say otherwise; changes in a name come on top.
UniProt P55957: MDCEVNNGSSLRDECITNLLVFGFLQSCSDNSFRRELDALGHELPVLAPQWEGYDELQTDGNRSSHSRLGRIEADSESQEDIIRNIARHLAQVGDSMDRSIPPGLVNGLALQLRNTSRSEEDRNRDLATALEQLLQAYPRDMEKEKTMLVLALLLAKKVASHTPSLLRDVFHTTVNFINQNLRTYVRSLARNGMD

Assays:
[1] = biological target: C-terminal deleted GST-BCL-2 (UniProt P10415); assay: fluorescence polarization, displacement of prebound FITC-BID BH3 from BCL-2
[2] = biological target: C-terminal deleted GST-BCL-2 (UniProt P10415); assay: direct fluorescence polarization, 25 nM fluoresceinated peptide with GST-BCL2 25-1000 nM

IC50 [1]: 838 nM
Molecule: unlabeled unmodified BID BH3 peptide (from UniProt P55957 80-101)

Kd [2]: 269 nM
B1: FITC-labeled unmodified BID BH3 peptide (peptide, UniProt P55957 80-101, looked up)
peptide: EDIIRNIARHLAQVGDSMDRSI
modifications: amino terminus derivatized with b-alanine and fluorescein isothiocyanate (FITC)
